Literature values, collected in US20170202782A1 (Abraxis BioScience, LLC, priority 2014, published 2017).

Sequences of proteins named here, by UniProt entry; tags and fusion partners are left off.
UniProt P10415, whole entry: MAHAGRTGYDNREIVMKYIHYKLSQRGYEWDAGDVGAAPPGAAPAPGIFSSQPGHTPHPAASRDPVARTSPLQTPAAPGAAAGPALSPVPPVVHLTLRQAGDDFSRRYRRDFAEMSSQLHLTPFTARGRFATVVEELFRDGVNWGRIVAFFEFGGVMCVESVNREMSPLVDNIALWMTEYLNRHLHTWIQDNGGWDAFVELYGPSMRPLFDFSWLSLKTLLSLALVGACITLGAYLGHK

Molecular target: Bcl-2 (Homo sapiens, UniProt P10415)
Conditions: cited from earlier work

Q: Which Ki does the source give for `CC1(C)CCC(c2ccc(Cl)cc2)=C(CN2CCN(c3ccc(C(=O)NS(=O)(=O)c4ccc(N[C@H](CCN5CCOCC5)CSc5ccccc5)c(S(=O)(=O)C(F)(F)F)c4)cc3)CC2)C1` [ABT-263] here?
A: ≤ 0.5 nM
